Cyclic peptide permeability, from CycPeptMPDB

Values of Townsend et al. 2020, doi:10.26434/chemrxiv.13335941.v1, as listed in CycPeptMPDB.

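Conditions beyond the assay type are not listed; see the original paper. Other peptides of the study may be missing here. Peptides that the database sets to -10, its floor, are left out.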

PAMPA is the parallel artificial membrane permeability assay, which has no cells and reads passive diffusion. Permeability is in 10^-6 cm/s, converted from the database's log10 values; higher is more permeable.

{"smiles": "CC(C)C[C@H]1C(=O)N[C@@H](Cc2ccccc2)CC(=O)N2CCC[C@H]2C(=O)N(C)[C@@H](CC(C)C)C(=O)N[C@@H](Cc2ccccc2)C(=O)N[C@@H](C)C(=O)N1C", "PAMPA (10^-6 cm/s)": "5.8"}
{"smiles": "CC(C)C[C@@H]1NC(=O)[C@@H]2CCCN2C(=O)C[C@H](Cc2ccccc2)NC(=O)[C@@H](CC(C)C)NC(=O)[C@H](C)N(C)C(=O)[C@H](Cc2ccccc2)NC1=O", "PAMPA (10^-6 cm/s)": "1.6"}
{"smiles": "CC(C)C[C@H]1NC(=O)[C@H](C)NC(=O)[C@H](Cc2ccccc2)NC(=O)[C@@H](CC(C)C)NC(=O)[C@@H]2CCCN2C(=O)[C@@H](CC(C)C)NC1=O", "PAMPA (10^-6 cm/s)": "0.41"}
{"smiles": "CC(C)C[C@@H]1NC(=O)[C@@H](CC(C)C)NC(=O)[C@H](C)N(C)C(=O)[C@H](Cc2ccccc2)NC(=O)[C@H](CC(C)C)N(C)C(=O)[C@H]2CCCN2C1=O", "PAMPA (10^-6 cm/s)": "13"}
{"smiles": "CC(C)C[C@@H]1NC(=O)[C@H]2CCCN2C(=O)[C@H](CC(C)C)NC(=O)[C@@H](CC(C)C)N(C)C(=O)[C@@H](C)N(C)C(=O)[C@H](Cc2ccccc2)NC1=O", "PAMPA (10^-6 cm/s)": "7.9"}
{"smiles": "CC(C)C[C@@H]1NC(=O)[C@@H](CC(C)C)N(C)C(=O)[C@H](C)N(C)C(=O)[C@H]2CCCN2C(=O)[C@H](Cc2ccccc2)NC(=O)[C@H](CC(C)C)N(C)C(=O)[C@H]2CCCN2C1=O", "PAMPA (10^-6 cm/s)": "11"}
{"smiles": "CC(C)C[C@@H]1C(=O)N[C@H](CC(C)C)C(=O)N2CCC[C@@H]2C(=O)N(Cc2ccccc2)CC(=O)N[C@@H](Cc2ccccc2)C(=O)N2CCC[C@@H]2C(=O)N(C)[C@@H](C)C(=O)N1C", "PAMPA (10^-6 cm/s)": "1.9"}
{"smiles": "CC(C)C[C@@H]1NC(=O)[C@@H]2CCCN2C(=O)C[C@H](Cc2ccccc2)NC(=O)[C@@H](CC(C)C)NC(=O)C[C@H](Cc2ccccc2)NC(=O)[C@H]2CCCN2C(=O)[C@H](Cc2ccccc2)NC1=O", "PAMPA (10^-6 cm/s)": "1.3"}
{"smiles": "CC(C)C[C@@H]1C(=O)N(C)[C@@H](CC(C)C)C(=O)N2CCC[C@H]2C(=O)N(Cc2ccccc2)CC(=O)N[C@@H](Cc2ccccc2)C(=O)N2CCC[C@H]2C(=O)N[C@@H](C)C(=O)N1C", "PAMPA (10^-6 cm/s)": "1.8"}
{"smiles": "CC(C)C[C@@H]1C(=O)N2CCC[C@@H]2C(=O)N[C@H](CC(C)C)C(=O)N[C@@H](Cc2ccccc2)C(=O)N2CCC[C@@H]2C(=O)N(C)[C@@H](C)C(=O)N(C)[C@@H](CC(C)C)C(=O)N1C", "PAMPA (10^-6 cm/s)": "0.4"}
{"smiles": "CC(C)C[C@@H]1C(=O)N[C@@H](Cc2ccccc2)C(=O)N2CCC[C@@H]2C(=O)N[C@@H](Cc2ccccc2)CC(=O)N[C@H](CC(C)C)C(=O)N[C@@H](Cc2ccccc2)CC(=O)N2CCC[C@H]2C(=O)N1C", "PAMPA (10^-6 cm/s)": "1.8"}
{"smiles": "CC(C)C[C@H]1NC(=O)[C@H](C)NC(=O)[C@@H]2CCCN2C(=O)[C@H](Cc2ccccc2)NC(=O)[C@@H](CC(C)C)NC(=O)[C@@H]2CCCN2C(=O)[C@@H](CC(C)C)NC1=O", "PAMPA (10^-6 cm/s)": "0.083"}
{"smiles": "CCCN1CC(=O)N(C)[C@H](CC(C)C)C(=O)N(Cc2ccccc2)CC(=O)N2CCC[C@H]2C(=O)N(C)[C@@H](CC(C)C)C(=O)N[C@@H](Cc2ccccc2)C(=O)N2CCC[C@@H]2C1=O", "PAMPA (10^-6 cm/s)": "8.1"}
{"smiles": "CC(C)C[C@H]1NC(=O)[C@H](CC(C)C)N(C)C(=O)[C@H](C)N(C)C(=O)[C@H]2CCCN2C(=O)[C@H](Cc2ccccc2)NC(=O)[C@H](CC(C)C)N(C)C(=O)[C@@H]2CCCN2C1=O", "PAMPA (10^-6 cm/s)": "9.3"}
{"smiles": "CC(C)C[C@@H]1NC(=O)[C@@H](CC(C)C)N(C)C(=O)[C@H](C)NC(=O)[C@@H]2CCCN2C(=O)[C@H](Cc2ccccc2)NC(=O)CN(Cc2ccccc2)C(=O)[C@@H]2CCCN2C1=O", "PAMPA (10^-6 cm/s)": "2"}
{"smiles": "CC(C)C[C@H]1NC(=O)C[C@H](Cc2ccccc2)NC(=O)[C@H]2CCCN2C(=O)[C@H](Cc2ccccc2)NC(=O)CN(Cc2ccccc2)C(=O)[C@H]2CCCN2C(=O)[C@H](CC(C)C)N(C)C1=O", "PAMPA (10^-6 cm/s)": "1.4"}

2 of these entries, quoted again:

compound	PAMPA (10^-6 cm/s)
CC(C)C[C@H]1NC(=O)[C@H](C)NC(=O)[C@@H]2CCCN2C(=O)[C@H](Cc2ccccc2)NC(=O)[C@@H](CC(C)C)NC(=O)[C@@H]2CCCN2C(=O)[C@@H](CC(C)C)NC1=O	0.083
CC(C)C[C@@H]1NC(=O)[C@@H](CC(C)C)N(C)C(=O)[C@H](C)NC(=O)[C@@H]2CCCN2C(=O)[C@H](Cc2ccccc2)NC(=O)CN(Cc2ccccc2)C(=O)[C@@H]2CCCN2C1=O	2